## Apparent affinities of Ab-91 variants for a coronavirus HR2 peptide

All variants were tested on one target, the spike HR2 peptide PDVDLGDISGINAS (SARS-CoV-2).

Parent: Ab-91, a human scFv built as VL, a 15-residue (Gly4Ser)3 linker, VH. Only the CDRs of the heavy chain vary.
VL: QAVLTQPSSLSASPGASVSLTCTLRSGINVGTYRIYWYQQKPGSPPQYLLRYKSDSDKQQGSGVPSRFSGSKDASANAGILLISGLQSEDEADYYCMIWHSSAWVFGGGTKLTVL
VH: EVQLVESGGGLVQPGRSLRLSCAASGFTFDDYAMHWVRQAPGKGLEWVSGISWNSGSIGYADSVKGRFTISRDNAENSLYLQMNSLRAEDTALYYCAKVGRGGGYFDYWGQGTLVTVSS

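Phage display of a naive human antibody library on the peptide gave the parent. In library AAYL51, one, two or three CDR residues were substituted; doubles and triples were drawn at random. In AlphaSeq, yeast of one mating type display the scFv and yeast of the other type display the target. The frequency of each diploid, read from paired DNA barcodes, reflects how well the two displayed proteins bind. Scores were corrected for input abundance and mapped to Kd with protein pairs of known affinity run in the same pool. Each pool was mated in three replicate cultures.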

Changes read parent residue, position, new residue, counted from the first residue of the VH shown. Every variant below is changed at V99 of the VH (sequential numbering). The Kd shown is the geometric mean over detected replicates; a lower Kd is a better binder. Where no diploid with the target was found in any replicate, the entry reads "nd": below detection, most likely a poor binder, though not proof of it. Nonspecific signal, from three strains lacking the peptide, appeared in 21% of pairings of library AAYL51, centred on 34 µM (5% of these signals below 1.8 µM); values are not corrected for it.

The variant V64T K65V V99L gave 270 µM (3 of 3 replicates). The variant T28V V99C showed 9.6 nM (3 of 3 replicates). With D30W G50K V99D the result was nd (0 of 3 replicates). The variant Y60E V99G Y105T gave nd (0 of 3 replicates). For F27I W53T V99G, the assay gave nd (0 of 3 replicates).

For D30K V99L D107F, the assay gave 4.1 µM (1 of 3 replicates). With F29C I58C V99T the result was 1.2 mM (1 of 3 replicates). The variant A33F S63H V99H gave 3.4 µM (1 of 3 replicates). With S57L V99T R101L the result was nd (0 of 3 replicates). With F29W V99E D107W the result was 51 µM (2 of 3 replicates).

With V99N the result was 50 µM (3 of 3 replicates). The variant N54L G56Q V99T gave 31 µM (2 of 3 replicates). For G56W V99R G103P, the assay gave nd (0 of 3 replicates). For T28I G50H V99E, the assay gave 65 µM (3 of 3 replicates). The variant V99R Y105I gave nd (0 of 3 replicates).

With F27Y G59H V99P the result was 92 µM (3 of 3 replicates). The variant I58R V99M R101H gave nd (0 of 3 replicates). The variant G26I D30K V99A gave nd (0 of 3 replicates). For Y60W K65C V99P, the assay gave nd (0 of 3 replicates). The variant D62Q V99T F106V gave nd (0 of 3 replicates).

The variant A33Q V99M R101G gave nd (0 of 3 replicates). For F29E V99W Y108I, the assay gave 24 µM (2 of 3 replicates). For N54S K65G V99T, the assay gave 670 µM (1 of 3 replicates). For D31E Y32S V99E, the assay gave 5.6 nM (3 of 3 replicates). For Y60W V99Q Y105S, the assay gave nd (0 of 3 replicates).

For W53A V99A R101P, the assay gave 86 µM (2 of 3 replicates). The variant G26P I58D V99P showed nd (0 of 3 replicates). The variant D30Y V99R showed nd (0 of 3 replicates). For S52I G56F V99D, the assay gave nd (0 of 3 replicates). With M34C Y60T V99N the result was nd (0 of 3 replicates).

The variant I58E V99M D107P showed 5.2 nM (3 of 3 replicates). The variant A61Q V99L G104M showed nd (0 of 3 replicates). The variant D30K V99R F106N gave 290 µM (1 of 3 replicates). The variant D31I S55E V99S gave 20 µM (1 of 3 replicates). With V99C the result was 4.7 µM (1 of 3 replicates).

The variant F29L V99A G100E showed nd (0 of 3 replicates). For T28G V99E F106M, the assay gave 80 µM (1 of 3 replicates).

The first 4 entries again:

changes	Kd (apparent)	detected
V64T K65V V99L	270 µM	3 of 3
T28V V99C	9.6 nM	3 of 3
D30W G50K V99D	nd	0 of 3
Y60E V99G Y105T	nd	0 of 3

The measurements come from Engelhart et al. 2022 (doi:10.1038/s41597-022-01779-4) through the FLAb antibody collection.